Article PMC7766583, “Ionic Environment Affects Biomolecular Interactions of Amyloid-β: SPR Biosensor Study” (International Journal of Molecular Sciences, 2020)

Legend:
amyloid beta 1-40 = target: T1, amyloid beta 1-40 (human, UniProt P05067 672-711); test: SPR; 17β-HSD10 captured on an amine-coupled anti-17β-HSD10 antibody; monomeric Aβ1-40 (Preparation C) injected at 1 μM for 5 min; running buffer 10 mM HEPES pH 7.4, 5 mM Na+, BSA 200 μg/mL, K+ 0-500 mM, Mg2+ 0-50 mM; 25 °C, 20 µL/min; reference-compensated response 5 min after return to buffer; conditions: both partners purified
T1 construct: amyloid beta fragment 1-40 (40 amino acids), human, synthetic; numbers count on: the Aβ peptide; Used in a monomeric form (Preparation C) and an oligomeric form (Preparation A); The two forms are told apart by the assay; also called Aβ_(1–40); Aβ; source: synthetic peptide; bought: AnaSpec

amyloid beta 1-42 = target: T2, amyloid beta 1-42 (human, UniProt P05067 672-713); test: SPR; 17β-HSD10 captured on an amine-coupled anti-17β-HSD10 antibody; oligomeric Aβ1-42 (Preparation A) injected at 1 μM for 5 min; running buffer 10 mM HEPES pH 7.4, 5 mM Na+, BSA 200 μg/mL, K+ 0-500 mM, Mg2+ 0-50 mM; 25 °C, 20 µL/min; reference-compensated response 5 min after return to buffer; conditions: both partners purified
T2 construct: amyloid beta fragment 1-42 (42 amino acids), human, synthetic; numbers count on: the Aβ peptide; Used in an oligomeric form (Preparation A) and a monomeric form (Preparation B); The two forms are told apart by the assay; also called Aβ_(1–42); Aβ; source: synthetic peptide; bought: AnaSpec

binding result (amyloid beta 1-40): binds
binding result (amyloid beta 1-42): binds
B1: 17β-hydroxysteroid dehydrogenase type 10 (enzyme, human, UniProt Q99714 1-261, looked up)
chain: MAAACRSVKGLVAVITGGASGLGLATAERLVGQGASAVLLDLPNSGGEAQAKKLGNNCVFAPADVTSEKDVQTALALAKGKFGRVDVAVNCAGIAVASKTYNLKKGQTHTLEDFQRVLDVNLMGTFNVIRLVAGEMGQNEPDQGGQRGVIINTASVAAFEGQVGQAAYSASKGGIVGMTLPIARDLAPIGIRVMTIAPGLFGTPLLTSLPEKVCNFLASQVPFPSRLGDPAEYAHLVQAIIENPFLNGEVIRLDGAIRMQP
notes: 17β-hydroxysteroid dehydrogenase type 10 (17β-HSD10), human, recombinant, bought from Fitzgerald; also called 17β-HSD10; 17β-hydroxysteroid dehydrogenase 10; source: bought: Fitzgerald (human, recombinant)
